Measured affinities in a library of Ab-14 light chain variants

Binding partner: SARS-CoV-2 spike HR2 peptide, sequence PDVDLGDISGINAS.

Parent: Ab-14, a human scFv built as VH, the linker GGGGSGGGGSGGGGS, VL. Only the CDRs of the light chain vary.
VH: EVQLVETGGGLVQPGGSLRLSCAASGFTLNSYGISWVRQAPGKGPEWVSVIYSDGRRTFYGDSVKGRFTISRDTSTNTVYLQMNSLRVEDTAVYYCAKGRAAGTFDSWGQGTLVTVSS
VL: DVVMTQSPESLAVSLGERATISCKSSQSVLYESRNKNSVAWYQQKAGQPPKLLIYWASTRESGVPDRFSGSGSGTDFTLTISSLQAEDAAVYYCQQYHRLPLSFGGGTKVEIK

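The parent was found by panning a naive human phage display library on the peptide. This is the validation round: designs drawn from the data on random variants, tested in the same kind of assay. Group labels follow the data file (Ctrl: baseline library sampled from a position-specific scoring matrix, with some repeated check sequences; GP: Gaussian process model; HC: hill climbing; Gen: genetic algorithm; Gibbs: Gibbs sampling; a sequence that several methods proposed may carry one label only). AlphaSeq pools MATa yeast showing the antibodies with MATalpha yeast showing the peptide. The frequency of each diploid, read from paired DNA barcodes, reflects how well the two displayed proteins bind. The ratio of observed to expected reads was calibrated, replicate by replicate, on BCL2-family standards whose Kd was known from biolayer interferometry. There are six technical replicates.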

The parent's light chain CDRs are KSSQSVLYESRNKNSVA, WASTRES, QQYHRLPLS; each variant's own CDRs replace them letter for letter. This list holds designs with at most six substitutions. The read-out is the apparent dissociation constant on a log10 scale (nM): the lower, the stronger. Replicates are averaged; those with no signal do not enter the mean. "nd" marks a missing value. The strain was present, yet no cells mated with the target were sequenced in any replicate, which points to weak or no binding. Nonspecific signal, from three strains lacking the peptide, appeared in 4% of pairings of all light chain designs, centred on 2.64 (5% of these signals below 1.59); values are not corrected for it. The authors' rule: three or more of the six replicates give a measured affinity, fewer mean a poor binder. A sequence that the file lists under several names has all its replicates pooled. Values of this round are not directly comparable with the first-round values of the same sequences.

For KLQQSMLYESRNKNSVA | HASTRLS | QQYHRLPLS [GP_Gen], the assay gave 0.38 (6 of 6 replicates). Variant TSSQSVYYESRNCNSIA | WASTRES | QQYHRLPLS [Ctrl] showed 2.97 (1 of 6 replicates). With KVEFSVDYESRNKNSVA | QASTREK | QQYHRLPLS [GP_Gibbs] the result was 0.20 (6 of 6 replicates). Variant KMSQEKLYESRNKNSVA | DASTRES | QQYHRLPLS [GP_HC] showed -0.13 (6 of 6 replicates). Variant KSSQSVLTNSRNKNSVA | DGSTRES | QQYHRLPLS [Ctrl] gave 0.00 (6 of 6 replicates). Variant HLSPVVLYESRNKNSVA | NASTRES | QQYHRLPLS [GP_HC] showed -0.28 (6 of 6 replicates). Variant KSSISYLYESMNKNSVA | QGSTRES | QQYHRLPLS [GP_HC] showed 0.00 (6 of 6 replicates). For KFSQSVAYEDRTKNSVA | NASTRES | QQYHRLPLS [GP_HC], the assay gave -0.04 (6 of 6 replicates).

Variant KSSQSDLYESRNKNSVA | DASTRES | QQYHRLPLS [Ctrl+GP_Gen] showed -0.06 (12 of 12 replicates). Variant KSSQSVYYESENKNSVA | WASTRES | QQYHRLPLS [Ctrl] showed 1.58 (6 of 6 replicates). Variant KISQSVLYESDNKNSVA | WASTREV | QQYHRLPLL [Ctrl] gave 0.53 (6 of 6 replicates). Variant KSSQSPLYESRNKNSVA | QASYRES | QQYMRLPLS [Ctrl] gave 0.32 (6 of 6 replicates). Variant KSSNSVLYESRNKNSVA | FASTRES | QQYHRLPLS [Ctrl] showed 2.07 (5 of 6 replicates). For KSSQSVLYESRNKNSVA | EVSMRES | QQYHRLPLS [Ctrl], the assay gave 0.56 (6 of 6 replicates). Variant KVSISYLLESRNKNSVA | EATTRES | QQYHRLPLS [GP_HC] gave 0.91 (6 of 6 replicates). For KSSRSVLYESRNKNSVA | DASTRES | QQYHMLPLR [Ctrl], the assay gave 0.51 (6 of 6 replicates).

Variant KSSQSVLDESRNKNSVA | SASTRES | QQYHRLPLG [Ctrl] gave 0.38 (6 of 6 replicates). With KSSQSVLGEQGNKNSVA | DISTRES | QQYHRLPLS [GP_HC] the result was 0.23 (6 of 6 replicates). With KVSQSVLYEDRNKNSVA | DASTRES | QQYHRLPLS [GP_Gen] the result was -0.33 (6 of 6 replicates). Variant KLSQSWLYESRNSNSVA | NASTRED | QQYHRLPLS [GP_Gen] showed 0.10 (6 of 6 replicates). For KNVQSVLYESRNKNAVA | WASTRES | QQYHRLPLS [Ctrl], the assay gave 1.34 (2 of 6 replicates). Variant KSLQSDLYESRNKNSVA | HASTREQ | QQYHRLPLS [GP_HC] showed 0.17 (6 of 6 replicates). For KSSQSVTYESRNKNSVA | DASLRES | QQYHRLPLS [Ctrl], the assay gave nd (0 of 6 replicates). Variant KYPQSVLYESRNKNSVA | WASTRES | QQYHRLPLS [Ctrl] gave 1.21 (6 of 6 replicates).

Variant KSSQSVLYEHRNKNSVA | GASTRES | QQYHRLPLS [Ctrl] showed 0.94 (6 of 6 replicates). Variant KSSQSVLYESRLKNSVA | NASTRES | QQYHRLPLS [Ctrl] gave 0.25 (6 of 6 replicates). With KQPQSVLYESRNKNSVA | DASTRES | QQYHRLPLS [GP_HC] the result was 0.00 (6 of 6 replicates). For KCSQSVDNETRNKNSVA | WASTRSS | QQYHDLPLS [Ctrl], the assay gave 2.79 (3 of 6 replicates). For KSSDSVLYESTNDNSVA | WASTRES | QQYHRLPNS [Ctrl], the assay gave 2.25 (1 of 6 replicates). For KLSQSDLYESRNKNSVA | DASTRES | QAYHRLPLS [GP_Gen], the assay gave 0.29 (6 of 6 replicates). Variant KLQQSYLYESRNKNSVA | NASTREV | QQYHRLPLS [GP_Gen] gave 0.45 (6 of 6 replicates). With KVSQSVLYESGTKNSVA | NASVRES | QQYHRLPLS [GP_HC] the result was 0.70 (6 of 6 replicates).

Variant KSSQSILYESRNKPSVA | DAYTRES | QQYHRLPLS [Ctrl] gave 0.45 (6 of 6 replicates). Variant KMSQSVDQESRNKNSVA | DASTRES | QQYHRLPLS [GP_HC] gave 0.08 (6 of 6 replicates).

A selection of 4 entries from above:

CDR-L1	CDR-L2	CDR-L3	group	mean log10 Kd (nM)	detected
KQPQSVLYESRNKNSVA	DASTRES	QQYHRLPLS	GP_HC	0.00	6/6
KSSQSVLGEQGNKNSVA	DISTRES	QQYHRLPLS	GP_HC	0.23	6/6
KSSNSVLYESRNKNSVA	FASTRES	QQYHRLPLS	Ctrl	2.07	5/6
KVEFSVDYESRNKNSVA	QASTREK	QQYHRLPLS	GP_Gibbs	0.20	6/6

From the AlphaSeq antibody data of Li et al. 2023 (doi:10.1038/s41467-023-39022-2), copy in the FLAb collection.